Laboratory results from patent publication US7728107B2 (priority 2005, dated 2010).

Chains of the proteins cited; added tags and fusions are not shown.
UniProt P41595, whole entry: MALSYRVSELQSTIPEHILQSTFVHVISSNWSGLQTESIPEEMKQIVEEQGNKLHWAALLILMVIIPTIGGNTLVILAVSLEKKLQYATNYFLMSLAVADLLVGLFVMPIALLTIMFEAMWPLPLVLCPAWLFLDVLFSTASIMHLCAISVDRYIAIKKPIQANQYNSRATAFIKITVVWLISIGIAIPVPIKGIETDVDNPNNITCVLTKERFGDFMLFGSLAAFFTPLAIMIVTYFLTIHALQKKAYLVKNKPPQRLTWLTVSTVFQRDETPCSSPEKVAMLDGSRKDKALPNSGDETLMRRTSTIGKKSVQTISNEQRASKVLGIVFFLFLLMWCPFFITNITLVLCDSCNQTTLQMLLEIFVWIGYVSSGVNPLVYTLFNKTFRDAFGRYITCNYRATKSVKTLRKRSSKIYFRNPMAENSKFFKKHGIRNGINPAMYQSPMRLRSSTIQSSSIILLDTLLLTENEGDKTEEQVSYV
UniProt P28223, whole entry: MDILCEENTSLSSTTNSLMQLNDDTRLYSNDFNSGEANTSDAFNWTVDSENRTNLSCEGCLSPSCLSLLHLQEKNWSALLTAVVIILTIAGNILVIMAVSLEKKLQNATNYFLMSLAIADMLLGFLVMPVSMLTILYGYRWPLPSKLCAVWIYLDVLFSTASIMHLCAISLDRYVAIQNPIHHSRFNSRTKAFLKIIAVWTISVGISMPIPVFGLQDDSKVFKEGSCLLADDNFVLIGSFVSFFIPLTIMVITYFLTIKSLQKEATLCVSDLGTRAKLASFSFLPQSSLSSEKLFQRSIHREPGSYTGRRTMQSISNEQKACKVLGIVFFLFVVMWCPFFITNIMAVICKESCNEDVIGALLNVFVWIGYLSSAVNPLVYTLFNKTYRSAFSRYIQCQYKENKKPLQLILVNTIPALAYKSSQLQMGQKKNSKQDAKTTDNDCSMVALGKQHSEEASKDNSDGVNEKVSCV

Legend:
human 5-HT2B receptor [1] = molecular target: T1, human 5-HT2B receptor (Homo sapiens, UniProt P41595); settings: CHO, Ca^2+ FLIPR, apparent pKB, mean ± S.E.M of 3 to 6 experiments
human 5-HT2B receptor [2] = molecular target: T1, human 5-HT2B receptor; assay: biochemical; format: binding; design: expressed in transfected cells; settings: for Affinity constant pKI h5-HT2B: CHO membranes, head: [^3H]-mesulergine, mean ± S.E.M of 3-8 experiments
human 5-HT2A receptor = human 5-HT2A receptor (Homo sapiens, UniProt P28223); assay: biochemical

Compound	Antagonist affinity pKB h5-HT2B (human 5-HT2B receptor [1])	Affinity constant pKI h5-HT2B (human 5-HT2B receptor [2])	Ki (human 5-HT2A receptor) [nM]	Ki (human 5-HT2B receptor [2]) [nM]
CSc1ccc2c(c1)C(N1CCN(C)CC1)Cc1ccccc1S2 (centres unmarked) [Methiothepin, methiothepin]	8.28 ± 0.03	8.38 ± 0.03	–	–
Clc1cccc(N2CCNCC2)c1 [m-CPP, 1-(3-chlorophenyl)piperazine]	–	7.54 ± 0.07	87.1	–
CC(N)Cc1c[nH]c2ccc(OCc3cccs3)cc12 (centres unmarked) [1-{5-(2-thienyl-methoxy)-1H-3-indolyl}propan-2-amine]	–	–	–	7.76
